Source: ChEMBL document CHEMBL1137888, “1,3-Dihydro-2,1,3-benzothiadiazol-2,2-diones and 3,4-dihydro-1H-2,1,3-benzothidiazin-2,2-diones as ligands for the NOP receptor” (2004)

Key:
Nociceptin receptor [1] = biological target: T1, Nociceptin receptor (Homo sapiens, UniProt P41146); test: Agonist activity as stimulation of [35S]-GTP-gamma binding to human Opioid receptor like 1
Nociceptin receptor [2] = biological target: T1, Nociceptin receptor; test: Inhibition of [3H]nociceptin binding to human Opioid receptor like 1
Mu-type opioid receptor [3] = biological target: T2, Mu-type opioid receptor (Homo sapiens, UniProt P35372); test: Agonist activity as stimulation of [35S]-GTP-gamma binding to human Opioid receptor mu 1
Mu-type opioid receptor [4] = biological target: T2, Mu-type opioid receptor; test: Inhibition of [3H]diprenorphine binding to human Opioid receptor mu 1
[5] = biological target: Kappa-type opioid receptor (Homo sapiens, UniProt P41145); test: Inhibition of [3H]U-69593 binding to human Opioid receptor kappa 1
[6] = biological target: Delta-type opioid receptor (Homo sapiens, UniProt P41143); test: Inhibition of [3H]naltrindole binding to human Opioid receptor delta 1
Mu-type opioid receptor [7] = biological target: T2, Mu-type opioid receptor; test: Agonist activity as stimulation of [35S]-GTP-gamma binding to human Opioid receptor mu 1; Partial agonist
Mu-type opioid receptor [8] = biological target: T2, Mu-type opioid receptor; test: Agonist activity as stimu;ation of [35S]-GTP-gamma binding to human Opioid receptor mu 1; Partial antagonist
Mu-type opioid receptor [9] = biological target: T2, Mu-type opioid receptor; test: Agonist activity as stimulation of [35S]-GTP-gamma binding to human Opioid receptor mu 1; Antagonist

Compound	EC50 (Nociceptin receptor [1])	Ki (Nociceptin receptor [2])	EC50 (Mu-type opioid receptor [3])	Ki (Mu-type opioid receptor [4])	Ki [5] [nM]	Ki [6] [nM]	EC50 (Mu-type opioid receptor [7])	EC50 (Mu-type opioid receptor [8])	EC50 (Mu-type opioid receptor [9])
CC(C)C1CCC(N2CCC(N3c4ccccc4CN(CC(N)=O)S3(=O)=O)CC2)CC1 (stereo not drawn)	22 nM	3.9 nM	555 nM	92 nM	> 2000	> 2000	–	–	–
CC(C)C1CCC(N2CCC(N3c4ccccc4CN(CCNS(C)(=O)=O)S3(=O)=O)CC2)CC1 (stereo not drawn)	34 nM	–	–	106 nM	> 2000	> 2000	Partial agonist	–	–
CCCC1CCC(N2CCC(N3c4ccccc4CNS3(=O)=O)CC2)CC1 (stereo not drawn)	1610 nM	231 nM	3140 nM	188 nM	> 2000	> 2000	–	–	–
CC(C)C1CCC(N2CCC(N3c4ccccc4CNS3(=O)=O)CC2)CC1 (stereo not drawn)	38 nM and 12 nM and 14 nM	6.1 nM and 2.6 nM and 3.7 nM	799 nM and 620 nM	207 nM and 89 nM and 112 nM	> 2000	> 2000	–	Partial antagonist	–
CC(C)CCC(C)N1CCC(N2c3ccccc3CNS2(=O)=O)CC1 (stereo not drawn)	1580 nM	40 nM	3160 nM	73 nM	> 2000	> 2000	–	–	–
O=S1(=O)NCc2ccccc2N1C1CCN(C2CCc3ccccc3C2)CC1 (stereo not drawn)	–	2610 nM	–	–	> 2000	> 2000	–	–	–
O=S1(=O)Nc2ccccc2N1C1CCN(C2Cc3ccccc3C2)CC1	–	–	–	–	> 2000	> 2000	–	–	–
COC(=O)CN1Cc2ccccc2N(C2CCN(C3CCC(C(C)C)CC3)CC2)S1(=O)=O (stereo not drawn)	166 nM	–	–	182 nM	> 2000	> 2000	Partial agonist	–	–
CC(C)C1CCC(N2CCC(N3c4ccccc4CN(CCO)S3(=O)=O)CC2)CC1 (stereo not drawn)	33 nM	–	–	86 nM	> 2000	> 2000	Partial agonist	–	–
O=S1(=O)NCc2ccccc2N1C1CCN(C2CCCCCCC2)CC1	2010 nM	187 nM	–	1380 nM	> 2000	> 2000	–	–	Antagonist
O=S1(=O)Nc2ccccc2N1C1CCN(C2CCC3CCCCC3C2)CC1 (stereo not drawn)	3360 nM	–	–	5550 nM	> 2000	> 2000	–	Partial antagonist	–
O=S1(=O)Nc2ccccc2N1C1CCN(CCC(c2ccccc2)c2ccccc2)CC1	–	–	–	–	> 2000	> 2000	–	–	–
O=S1(=O)NCc2ccccc2N1C1CCN(Cc2ccc(-c3ccccc3)cc2)CC1	–	9540 nM	–	–	> 2000	> 2000	–	–	–
O=S1(=O)Nc2ccccc2N1C1CCN(Cc2ccc3ccccc3c2)CC1	–	> 10000 nM	–	–	> 2000	> 2000	–	–	–
CC(C)C1CCC(N2CCC(N3c4ccccc4CN(CC#N)S3(=O)=O)CC2)CC1 (stereo not drawn)	227 nM	–	344 nM	25 nM	> 2000	> 2000	–	–	–
CC(C)C1CCC(N2CCC(N3c4ccccc4CN(CC(=O)OC(C)(C)C)S3(=O)=O)CC2)CC1 (stereo not drawn)	484 nM	63 nM	–	289 nM	> 2000	> 2000	Partial agonist	–	–
O=S1(=O)NCc2ccccc2N1C1CCN(Cc2ccc3ccccc3c2)CC1	5590 nM	609 nM	> 10000 nM	294 nM	> 2000	> 2000	–	–	–
O=S1(=O)Nc2ccccc2N1C1CCN(C2CCCCCCC2)CC1	–	–	–	–	> 2000	> 2000	–	–	–
CCCCN1Cc2ccccc2N(C2CCN(C3CCC(C(C)C)CC3)CC2)S1(=O)=O (stereo not drawn)	78 nM	–	> 10000 nM	38 nM	> 2000	> 2000	–	–	–
O=S1(=O)NCc2ccccc2N1C1CCN(CCC(c2ccccc2)c2ccccc2)CC1	1650 nM	83 nM	801 nM	13 nM	> 2000	> 2000	–	–	–
O=S1(=O)Nc2ccccc2N1C1CCN(Cc2ccc(OCc3ccccc3)cc2)CC1	–	–	–	–	> 2000	> 2000	–	–	–
CC(C)C1CCC(N2CCC(N3c4ccccc4NS3(=O)=O)CC2)CC1 (stereo not drawn)	3070 nM	–	–	748 nM	> 2000	> 2000	–	Partial antagonist	–
O=S1(=O)NCc2ccccc2N1C1CCN(Cc2ccc(OCc3ccccc3)cc2)CC1	–	1880 nM	–	–	> 2000	> 2000	–	–	–
O=S1(=O)NCc2ccccc2N1C1CCN(C2CCC3CCCCC3C2)CC1 (stereo not drawn)	160 nM	28.7 nM	1470 nM	91.7 nM	> 2000	> 2000	–	–	–
O=S1(=O)NCc2ccccc2N1C1CCN(C2Cc3ccccc3C2)CC1	496 nM	46 nM	–	660 nM	> 2000	> 2000	–	–	Antagonist
O=S1(=O)Nc2ccccc2N1C1CCN(Cc2ccc(-c3ccccc3)cc2)CC1	–	> 10000 nM	–	–	> 2000	> 2000	–	–	–
O=S1(=O)Nc2ccccc2N1C1CCN(C2CCc3ccccc3C2)CC1 (stereo not drawn)	–	–	–	–	> 2000	> 2000	–	–	–
CCCC1CCC(N2CCC(N3c4ccccc4NS3(=O)=O)CC2)CC1 (stereo not drawn)	–	–	–	–	> 2000	> 2000	–	–	–

“And” between values parts separate entries of the source, which are not always exact repeats. Equal values may be shown once.
